Assay results from patent US20100330076A1.

By UniProt entry, the sequences of proteins in these tests, tags left out. Residues count along the entry.
UniProt P12318, 34-217: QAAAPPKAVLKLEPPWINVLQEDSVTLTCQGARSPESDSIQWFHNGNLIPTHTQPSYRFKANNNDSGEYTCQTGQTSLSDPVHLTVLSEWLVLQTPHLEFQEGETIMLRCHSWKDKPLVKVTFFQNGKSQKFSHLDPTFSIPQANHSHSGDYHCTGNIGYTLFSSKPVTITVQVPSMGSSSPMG

Biological target: extracellular domain of FcγRIIa C-terminal fused to GST (Berntzen et al., 2005) (human) (UniProt P12318)
Test: ELISA, IgG coated, serially diluted FcγRIIa-GST, anti-GST-HRP; the reference is not named (presumably glycosylated trastuzumab)

fold higher EC50: > 1000 fold
Substance: wild type aglycosylated trastuzumab (full length IgG1 purified from E. coli) (antibody)
